A short description of this assay: parental Ba/F3 cell viability inhibition, counter-screen for JAK2V617F inhibitor project, murine pro-B, CellTiter-Glo luminescence (AID 1520).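 Also: plate controls were DMSO-treated cells for no effect and JAK Inhibitor I control wells for full effect.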 The following applies: at 5.6 µM, hits give high values, cells kept alive by added IL-3. A general note: The purpose of a counterscreen is to sort out artefacts and off-target activity.

Molecules are shown by their SMILES. The entries are a selection whose mix differs from that of the whole data set. Active and inactive are the calls of the source.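 The calls were made as follows: active = cell growth inhibition above the hit limit set in the earlier mutant JAK2 cell screen (cut at about 27% in these data); inactive = the rest.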

On to `CC(=O)NC(SC(=S)N(CC(C)C)CC(C)C)C(Cl)(Cl)Cl` (stereo unspecified), for which the inhibition was inactive: -4.33%.

A word on the inhibition: it is the drop in the measured response relative to a control, in per cent.

The values above are taken from PubChem BioAssay AID1520 (The Scripps Research Institute Molecular Screening Center, 2009).
